In patent US4952607A, “Copper complex for treating cancer” (priority 1986, dated 1990):

Test system: Ehrlich carcinoma cells
Assay: Tumor growth, metastasis and survival of CBA mice implanted with Ehrlich carcinoma cells
Details: Charts V and VI

Cu(II)(salicylate)2 was tested, and the “survival of the host organisms” value was “prolonged survival of the host organisms”.
